{
  "source": "paper PMC8725944",
  "about": "“Design and synthesis of chromone-nitrogen mustard derivatives and evaluation of anti-breast cancer activity” (Journal of Enzyme Inhibition and Medicinal Chemistry, 2021)",
  "key": {"[1]": {"tested_on": "TNBC cell line MDA-MB-231", "experiment": "CCK-8 assay, antiproliferative activity against MDA-MB-231", "details": "read-out: IC50 MDA-MB-231; CCK-8, 72 h, mean ± SD of three experiments"}, "[2]": {"tested_on": "human mammary gland tumour cell line MCF-7", "experiment": "CCK-8 assay, antiproliferative activity against MCF-7", "details": "read-out: IC50 MCF-7; CCK-8, 72 h, mean ± SD of three experiments"}},
  "data": [
    {"molecule": "O=C(O)c1ccc(N(CCCl)CCCl)cc1", "values": [
      {"measurement": "IC50", "setting": "[1]", "result": "> 20", "unit": "µM"},
      {"measurement": "IC50", "setting": "[2]", "result": 12.1, "unit": "µM"}
    ]}
  ]
}
